One may read the Ki as a measure of affinity in units of concentration, obtained from inhibition or displacement. The low end stands for a stronger hold on the target, the high end for a looser hold on the target.

Amino acid sequences for entries named in this document (tags omitted).
UniProt P31652, whole entry: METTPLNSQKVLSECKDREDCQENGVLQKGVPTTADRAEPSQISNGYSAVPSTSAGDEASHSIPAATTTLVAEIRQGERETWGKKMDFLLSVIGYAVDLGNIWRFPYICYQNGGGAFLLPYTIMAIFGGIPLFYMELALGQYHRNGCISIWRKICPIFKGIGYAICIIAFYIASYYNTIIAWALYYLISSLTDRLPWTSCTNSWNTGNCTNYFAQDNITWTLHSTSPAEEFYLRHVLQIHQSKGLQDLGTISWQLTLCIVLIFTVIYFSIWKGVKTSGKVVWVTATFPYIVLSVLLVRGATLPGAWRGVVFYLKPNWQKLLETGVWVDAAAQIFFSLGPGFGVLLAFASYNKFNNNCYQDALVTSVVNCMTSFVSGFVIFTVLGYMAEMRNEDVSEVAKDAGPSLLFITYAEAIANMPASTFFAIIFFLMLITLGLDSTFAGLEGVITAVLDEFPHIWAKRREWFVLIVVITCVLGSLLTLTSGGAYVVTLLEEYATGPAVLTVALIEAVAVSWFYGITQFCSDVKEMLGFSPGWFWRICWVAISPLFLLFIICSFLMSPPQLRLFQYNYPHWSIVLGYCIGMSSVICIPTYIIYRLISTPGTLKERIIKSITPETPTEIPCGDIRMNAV

The target of this assay is Sodium-dependent serotonin transporter (Rattus norvegicus, UniProt P31652).

Turning to `COC(=O)[C@@H]1C2CC[C@@H](C[C@@H]1OC(=O)c1ccccc1)N2C` (single isomer, unassigned) [COCAINE], the Ki was 95 nM.

Source of the values: ChEMBL document CHEMBL1133485, “3alpha-(4-Substituted phenyl)nortropane-2beta-carboxylic acid methyl esters show selective binding at the norepinephrine transporter” (Bioorg Med Chem Lett, 2000).
